Legend:
human 5-HT2A receptor = human 5-HT2A receptor (Homo sapiens, UniProt P28223); test: 5-HT2A binding study, human receptor; settings: read-out: 5HT-2a Ki, Human
rat 5-HT2A receptor = rat 5-HT2A receptor (Rattus norvegicus, UniProt P14842); test: 5-HT2A binding study, rat receptor; settings: read-out: 5HT-2a Ki, Rat

Amino acid sequences for entries named in this document (tags omitted).
UniProt P28223, whole entry: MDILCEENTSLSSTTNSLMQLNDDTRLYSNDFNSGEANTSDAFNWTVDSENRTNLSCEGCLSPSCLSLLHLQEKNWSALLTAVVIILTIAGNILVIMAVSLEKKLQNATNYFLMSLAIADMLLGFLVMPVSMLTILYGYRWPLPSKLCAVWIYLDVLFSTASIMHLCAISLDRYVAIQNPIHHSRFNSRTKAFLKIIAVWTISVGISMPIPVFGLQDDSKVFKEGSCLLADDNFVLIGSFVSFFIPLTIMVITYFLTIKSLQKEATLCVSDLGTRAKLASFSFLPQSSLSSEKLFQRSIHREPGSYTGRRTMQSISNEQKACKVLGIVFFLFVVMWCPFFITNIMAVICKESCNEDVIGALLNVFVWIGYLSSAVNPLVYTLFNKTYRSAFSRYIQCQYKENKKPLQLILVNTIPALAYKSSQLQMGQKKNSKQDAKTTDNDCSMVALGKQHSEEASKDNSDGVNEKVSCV
UniProt P14842, whole entry: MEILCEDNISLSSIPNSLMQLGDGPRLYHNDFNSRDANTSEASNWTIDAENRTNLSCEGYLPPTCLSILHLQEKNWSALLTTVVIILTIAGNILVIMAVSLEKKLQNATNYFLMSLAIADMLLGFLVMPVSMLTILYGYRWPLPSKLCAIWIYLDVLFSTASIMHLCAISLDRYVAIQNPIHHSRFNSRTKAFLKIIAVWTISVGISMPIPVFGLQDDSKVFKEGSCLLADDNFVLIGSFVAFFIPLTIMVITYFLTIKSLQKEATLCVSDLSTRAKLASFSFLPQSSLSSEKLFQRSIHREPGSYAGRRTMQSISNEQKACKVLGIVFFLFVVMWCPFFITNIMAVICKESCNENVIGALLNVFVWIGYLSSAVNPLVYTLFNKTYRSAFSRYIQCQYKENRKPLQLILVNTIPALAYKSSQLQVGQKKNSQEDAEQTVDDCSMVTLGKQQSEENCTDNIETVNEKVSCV

Row | Ki (human 5-HT2A receptor) | Ki (rat 5-HT2A receptor) | Structure (SMILES)
1 | 2100 nM | 50.3 nM | CC(C)OC(=O)C1CN(CCCn2nc3ccccn3c2=O)CCN1c1cccc(Cl)c1 (stereo not drawn) [HY-2650]
2 | – | 18.7 nM | O=C(OC1CCCC1)C1CN(CCCn2nc3ccccn3c2=O)CCN1c1cccc(Cl)c1 (stereo not drawn) [HY-2725]
